# Assay results as given in US9187435B2, “Bridged Spiro[2.4]heptane ester derivatives” (Actelion Pharmaceuticals Ltd., priority 2010, dated 2015).
# Target: T1, human ALX receptor (Homo sapiens, UniProt P25090)
# T1 construct: expressed in transfected cells; host or cells: HEK293 (HEK293-hALXR-Gα16)
# T1 sequence (P25090 1-351): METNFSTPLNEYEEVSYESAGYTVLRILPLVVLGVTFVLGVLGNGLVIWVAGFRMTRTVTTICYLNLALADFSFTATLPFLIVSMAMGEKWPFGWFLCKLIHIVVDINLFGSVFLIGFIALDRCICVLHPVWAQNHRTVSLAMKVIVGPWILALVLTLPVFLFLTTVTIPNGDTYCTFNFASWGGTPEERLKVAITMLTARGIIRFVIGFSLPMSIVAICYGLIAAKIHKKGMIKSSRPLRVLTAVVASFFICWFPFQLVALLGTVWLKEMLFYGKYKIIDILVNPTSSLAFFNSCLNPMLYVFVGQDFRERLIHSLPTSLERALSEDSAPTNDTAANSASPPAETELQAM
# Experiment: Intracellular calcium measurements (FLIPR) in HEK293-hALXR-Gα16 cells, agonistic activity
# Format: cell-based
# Details: values normalized to WKYMVm 10 nM
# Experimental: The ALX receptor and FPRL2 agonistic activities of the compounds of formula (I) are determined in accordance with the following experimental method.
# Intracellular Calcium Measurements:
# Cells expressing recombinant human ALX receptor and the G-protein Gα16 (HEK293-hALXR-Gα16) were grown to 80% confluency in Growing Medium (GM). Cells were detached from culture dishes with a cell dissociation buffer (Invitrogen, 13151-014), and collected by centrifugation at 1,000 rpm at rt for 5 min in Assay Buffer (AB) (equal parts of Hank's BSS (Gibco, 14065-049) and DMEM without Phenol Red (Gibco, 11880-028)). After 60 min incubation at 37° C. under 5% CO2 in AB supplemented with 1 μM Fluo-4 (AM) (Invitrogen, F14202), and 20 mM HEPES (Gibco, 15630-056), the cells were washed and resuspended in AB. They were then seeded onto 384-well FLIPR assay plates (Greiner, 781091) at 50,000 cells in 70 μl per well and sedimented by centrifugation at 1,000 rpm for 1 min. Stock solutions of test compounds were made up at a concentration of 10 mM in DMSO, and serially diluted in AB to concentrations required for activation dose response curves. WKYMVm (Phoenix Peptides) was used as a reference agonist. […] Changes in fluorescence were monitored before and after the addition of test compounds at lex=488 nm and lem=540 nm. […]
row,EC50 [nM],Compound
1,8.1,"Cc1cc(CNC(=O)[C@H]2[C@H](C(=O)OC[C@H]3CCNC[C@H]3F)[C@H]3CC[C@@H]2C32CC2)on1 (relative stereo) [Example 44, (1S,2R,3R,4R)-[(cis-3-Fluoro-piperidin-4-yl)methyl 2-(((3-methylisoxazol-5-yl)methyl)carbamoyl)spiro[bicyclo[2.2.1]heptane-7,1′-cyclopropane]-3-carboxylate]]"
2,7.6,"Cc1cc(CNC(=O)[C@H]2[C@H](C(=O)OC[C@@H]3CCNC[C@H]3F)[C@H]3CC[C@@H]2C32CC2)on1 (relative stereo) [Example 43, (1S,2R,3R,4R)-[(trans-3-Fluoro-piperidin-4-yl)methyl 2-(((3-methylisoxazol-5-yl)methyl)carbamoyl)spiro[bicyclo[2.2.1]heptane-7,1′-cyclopropane]-3-carboxylate]]"
